The text below walks through data of US10385089B2, “Thionucleoside derivative or salt thereof, and pharmaceutical composition” (FUJIFILM Corporation, priority 2014, dated 2019).

For the test, the system named is gemcitabine-resistant strain of pancreatic cancer cell line Capan-1 (ATCC Number: HTB-79). Description: Gemcitabine-resistant cell growth inhibition test (CellTiter Glo, total cellular ATP). The conditions noted are these: read-out: Growth inhibitory activity IC50 (μmol/L).

Like-named read-outs stand apart in the source and are kept apart here.

For the compound `COc1cccc2c1OP(=O)(OC[C@H]1S[C@@H](n3ccc(N)nc3=O)[C@@H](F)[C@@H]1O)OC2` (mixture of isomers) [Example 26-2-4, 4-amino-1-((2R,3S,4S,5R)-3-fluoro-4-hydroxy-5-((((RS)-8-methoxy-2-oxido-4H-benzo[d][1,3,2]dioxaphosphinin-2-yl)oxy)methyl)tetrahydrothiophen-2-yl)pyrimidin-2(1H)-one], the IC50 (Homo sapiens, CAPAN-1, 72 h) fell in the range of 5 to 15 µmol/L. Take `CC(C)(C)C(=O)SCCCCOP(=O)(OC[C@H]1S[C@@H](n2ccc(N)nc2=O)[C@@H](F)[C@@H]1O)Oc1ccccc1` (mixture of isomers) [Example 14-2, S-(4-(((RS)-(((2R,3S,4S,5R)-5-(4-amino-2-oxopyrimidin-1(2H)-yl)-4-fluoro-3-hydroxytetrahydrothiophen-2-yl)methoxy)(phenoxy)phosphoryl)oxy)butyl) 2,2-dimethylpropanethioate]: the IC50 (Homo sapiens, CAPAN-1, 72 h) fell in the range of 5 to 15 µmol/L. The same measure, in the same setting: then `Cc1ccc(OP(=O)(N[C@@H](C)C(=O)OCc2ccccc2)OC[C@H]2S[C@@H](n3ccc(N)nc3=O)[C@@H](F)[C@@H]2O)cc1` (mixture of isomers) [Example 5-2-6, (2S)-benzyl 2-(((RS)-(((2R,3S,4S,5R)-5-(4-amino-2-oxopyrimidin-1(2H)-yl)-4-fluoro-3-hydroxytetrahydrothiophen-2-yl)methoxy)(p-tolyloxy)phosphoryl)amino)propanoate], with 5 to 15 µmol/L. On the same count and under the same terms, under `COC(=O)[C@H](C)NP(=O)(OC[C@H]1S[C@@H](n2ccc(N)nc2=O)[C@@H](F)[C@@H]1O)Oc1ccc(I)cc1` (mixture of isomers) [Example 5-2-5, (2S)-methyl 2-(((RS)-(((2R,3S,4S,5R)-5-(4-amino-2-oxopyrimidin-1(2H)-yl)-4-fluoro-3-hydroxytetrahydrothiophen-2-yl)methoxy)(4-iodophenoxy)phosphoryl)amino)propanoate] stands 2 to 5 µmol/L; under `COC(=O)[C@H](C)NP(=O)(OC[C@H]1S[C@@H](n2ccc(N)nc2=O)[C@@H](F)[C@@H]1O)Oc1ccc(Br)cc1` (mixture of isomers) [Example 5-2-4, (2S)-methyl 2-(((RS)-(((2R,3S,4S,5R)-5-(4-amino-2-oxopyrimidin-1(2H)-yl)-4-fluoro-3-hydroxytetrahydrothiophen-2-yl)methoxy)(4-bromophenoxy)phosphoryl)amino)propanoate], 2 to 5 µmol/L; under `CC(C)(C)C(=O)OCOP(=O)(OCOC(=O)C(C)(C)C)OC[C@H]1S[C@@H](n2ccc(N)nc2=O)[C@@H](F)[C@@H]1O` [Example 11-2-2, ((2R,3S,4S,5R)-5-(4-amino-2-oxopyrimidin-1(2H)-yl)-4-fluoro-3-hydroxytetrahydrothiophen-2-yl)methyl bis(pivaloyloxymethyl) phosphate], 2 to 5 µmol/L. The same measure, in the same setting: then `C[C@H](NP(=O)(OC[C@H]1S[C@@H](n2ccc(N)nc2=O)[C@@H](F)[C@@H]1O)Oc1ccc(F)cc1F)C(=O)OCc1ccccc1` (mixture of isomers) [Example 6-2-2, (2S)-benzyl 2-(((RS)-(((2R,3S,4S,5R)-5-(4-amino-2-oxopyrimidin-1(2H)-yl)-4-fluoro-3-hydroxytetrahydrothiophen-2-yl)methoxy)(2,4-difluorophenoxy)phosphoryl)amino)propanoate], with 5 to 15 µmol/L; and `CCOC(=O)[C@H](CC(C)C)NP(=O)(OC[C@H]1S[C@@H](n2ccc(N)nc2=O)[C@@H](F)[C@@H]1O)Oc1ccccc1` (mixture of isomers) [Example 2-2, (2S)-ethyl 2-(((RS)-(((2R,3S,4S,5R)-5-(4-amino-2-oxopyrimidin-1(2H)-yl)-4-fluoro-3-hydroxytetrahydrothiophen-2-yl)methoxy)(phenoxy)phosphoryl)amino)-4-methylpentanoate], with 5 to 15 µmol/L; and `C[C@H](NP(=O)(OC[C@H]1S[C@@H](n2ccc(N)nc2=O)[C@@H](F)[C@@H]1O)Oc1ccc(F)cc1Cl)C(=O)OCc1ccccc1` (mixture of isomers) [Example 6-2-3, (2S)-benzyl 2-(((RS)-(((2R,3S,4S,5R)-5-(4-amino-2-oxopyrimidin-1(2H)-yl)-4-fluoro-3-hydroxytetrahydrothiophen-2-yl)methoxy)(2-chloro-4-fluorophenoxy)phosphoryl)amino)propanoate], with 5 to 15 µmol/L. For the compound `C[C@H](NP(=O)(OC[C@H]1S[C@@H](n2ccc(N)nc2=O)[C@@H](F)[C@@H]1O)Oc1ccccc1)C(=O)OC1CCCCC1` (mixture of isomers) [Example 4-2, (25)-cyclohexyl 2-(((RS)-(((2R,3S,4S,5R)-5-(4-amino-2-oxopyrimidin-1(2H)-yl)-4-fluoro-3-hydroxytetrahydrothiophen-2-yl)methoxy)(phenoxy)phosphoryl)amino)propanoate], where the note is “Homo sapiens, CAPAN-1, 72 h”, the IC50 fell in the range of 5 to 15 µmol/L. Still for that read-out and setting: under `C[C@H](NP(=O)(OC[C@H]1S[C@@H](n2ccc(N)nc2=O)[C@@H](F)[C@@H]1O)Oc1ccc(F)cc1)C(=O)OCc1ccccc1` (mixture of isomers) [Example 5-2-1, (2S)-benzyl 2-(((RS)-(((2R,3S,4S,5R)-5-(4-amino-2-oxopyrimidin-1(2H)-yl)-4-fluoro-3-hydroxytetrahydrothiophen-2-yl)methoxy)(4-fluorophenoxy)phosphoryl)amino)propanoate] stands 5 to 15 µmol/L. As for “(2S)-methyl 2-(((RS)-(((2R,3S,4S,5R)-5-(4-amino- 2-oxopyrimidin-1(2H)-yl)-4-fluoro-3- hydroxytetrahydrothiophen-2-yl) methoxy)(p-tolyloxy)phosphoryl)amino) propanoate [Example 5-2-7]”, the IC50 fell in the range of 5 to 15 µmol/L. Consider `COc1ccc(OP(=O)(N[C@@H](C)C(=O)OCc2ccccc2)OC[C@H]2S[C@@H](n3ccc(N)nc3=O)[C@@H](F)[C@@H]2O)cc1` (mixture of isomers) [Example 5-2-8, (2S)-benzyl 2-(((RS)-(((2R,3S,4S,5R)-5-(4-amino-2-oxopyrimidin-1(2H)-yl)-4-fluoro-3-hydroxytetrahydrothiophen-2-yl)methoxy)(4-methoxyphenoxy)phosphoryl)amino)propanoate], for which, for the setting “Homo sapiens, CAPAN-1, 72 h”, the IC50 was in the range of 5 to 15 µmol/L. `COC(=O)[C@H](C)NP(=O)(OC[C@H]1S[C@@H](n2ccc(N)nc2=O)[C@@H](F)[C@@H]1O)Oc1ccc(F)cc1` (mixture of isomers) [Example 5-2-2, (2S)-methyl 2-(((RS)-(((2R,3S,4S,5R)-5-(4-amino-2-oxopyrimidin-1(2H)-yl)-4-fluoro-3-hydroxytetrahydrothiophen-2-yl)methoxy)(4-fluorophenoxy)phosphoryl)amino)propanoate]: where the note is “Homo sapiens, CAPAN-1, 72 h”, the IC50 lay in the range of 5 to 15 µmol/L.

For `COC(=O)[C@H](C)NP(=O)(OC[C@H]1S[C@@H](n2ccc(N)nc2=O)[C@@H](F)[C@@H]1O)Oc1ccccc1` (mixture of isomers) [Example 3-2, (2S)-methyl 2-(((RS)-(((2R,3S,4S,5R)-5-(4-amino-2-oxopyrimidin-1(2H)-yl)-4-fluoro-3-hydroxytetrahydrothiophen-2-yl)methoxy)(phenoxy)phosphoryl)amino)propanoate], the IC50 (Homo sapiens, CAPAN-1, 72 h) lay within 5 to 15 µmol/L. For “(2S)-benzyl 2-(((RS)-(((2R,3S,4S,5R)-5-(4-amino- 2-oxopyrimidin-1(2H)-yl)-4-fluoro- 3-hydroxytetrahydrothiophen-2-yl) methoxy)(2,4-dichlorophenoxy) phosphoryl)amino)propanoale [Example 6-2-4]”, the IC50 was in the range of 5 to 15 µmol/L.

On to `COC(=O)[C@H](C)NP(=O)(OC[C@H]1S[C@@H](n2ccc(N)nc2=O)[C@@H](F)[C@@H]1O)Oc1ccc(Cl)cc1` (mixture of isomers) [Example 1-2-5, (2S)-methyl 2-(((RS)-(((2R,3S,4S,5R)-5-(4-amino-2-oxopyrimidin-1(2H)-yl)-4-fluoro-3-hydroxy-tetrahydrothiophen-2-yl)methoxy)(4-chlorophenoxy)phosphoryl)amino)propanoate], for which the IC50 (Homo sapiens, CAPAN-1, 72 h) is < 2 µmol/L. `C[C@H](NP(=O)(OC[C@H]1S[C@@H](n2ccc(N)nc2=O)[C@@H](F)[C@@H]1O)Oc1ccc(Cl)cc1)C(=O)OCc1ccccc1` (mixture of isomers) [Example 3-1, (2S)-benzyl 2-(((RS)-(((2R,3S,4S,5R)-5-(4-amino-2-oxopyrimidin-1(2H)-yl)-4-fluoro-3-hydroxytetrahydrothiophen-2-yl)methoxy)(4-chlorophenoxy)phosphoryl)amino)propanoate]: the IC50 (Homo sapiens, CAPAN-1, 72 h) lay within 5 to 15 µmol/L.

As to `C[C@H](NP(=O)(OC[C@H]1S[C@@H](n2ccc(N)nc2=O)[C@@H](F)[C@@H]1O)Oc1ccc(Cl)c(Cl)c1)C(=O)OCc1ccccc1` (mixture of isomers) [Example 6-2-1, (2S)-benzyl 2-(((RS)-(((2R,3S,4S,5R)-5-(4-amino-2-oxopyrimidin-1(2H)-yl)-4-fluoro-3-hydroxytetrahydrothiophen-2-yl)methoxy)(3,4-dichlorophenoxy)phosphoryl)amino)propanoate], for the setting “Homo sapiens, CAPAN-1, 72 h”, the IC50 is 5 to 15 µmol/L.

Turning to `CCC(=O)SCCOP(=O)(OCCSC(=O)CC)OC[C@H]1S[C@@H](n2ccc(N)nc2=O)[C@@H](F)[C@@H]1O` [Example 9-2-1, ((2R,3S,4S,5R)-5-(4-amino-2-oxopyrimidin-1(2H)-yl)-4-fluoro-3-hydroxytetrahydrothiophen-2-yl)methyl bis(S-propionyl-2-mercaptoethan-1-yl) phosphate], where the note is “Homo sapiens, CAPAN-1, 72 h”, the IC50 lay in the range of 2 to 5 µmol/L. With `C[C@H](NP(=O)(OC[C@H]1S[C@@H](n2ccc(N)nc2=O)[C@@H](F)[C@@H]1O)Oc1ccccc1)C(=O)OC1CCC1` (mixture of isomers) [Example 4-1, (2S)-cyclobutyl 2-(((RS)-(((2R,3S,4S,5R)-5-(4-amino-2-oxopyrimidin-1(2H)-yl)-4-fluoro-3-hydroxytetrahydrothiophen-2-yl)methoxy)(phenoxy)phosphoryl)amino)propanoate], where the note is “Homo sapiens, CAPAN-1, 72 h”, the IC50 was in the range of 2 to 5 µmol/L.

`C[C@H](NP(=O)(OC[C@H]1S[C@@H](n2ccc(N)nc2=O)[C@@H](F)[C@@H]1O)Oc1ccccc1)C(=O)OCc1ccccc1` (mixture of isomers) [Example 1-1, (2S)-benzyl 2-(((RS)-(((2R,3S,4S,5R)-5-(4-amino-2-oxopyrimidin-1(2H)-yl)-4-fluoro-3-hydroxytetrahydrothiophen-2-yl)methoxy)(phenoxy)phosphoryl)amino)propanoate]: the IC50 (Homo sapiens, CAPAN-1, 72 h) was < 2 µmol/L.
